Source: patent publication US7202260B2, “VEGFR-2 and VEGFR-3 inhibitory anthranilamide pyridones” (Schering AG, priority 2003, dated 2007)

Protein sequences, listed by entry. Tags and fused reporters are not part of them. Residues count along the entry.
UniProt P35968, 20-1356 limits assumed: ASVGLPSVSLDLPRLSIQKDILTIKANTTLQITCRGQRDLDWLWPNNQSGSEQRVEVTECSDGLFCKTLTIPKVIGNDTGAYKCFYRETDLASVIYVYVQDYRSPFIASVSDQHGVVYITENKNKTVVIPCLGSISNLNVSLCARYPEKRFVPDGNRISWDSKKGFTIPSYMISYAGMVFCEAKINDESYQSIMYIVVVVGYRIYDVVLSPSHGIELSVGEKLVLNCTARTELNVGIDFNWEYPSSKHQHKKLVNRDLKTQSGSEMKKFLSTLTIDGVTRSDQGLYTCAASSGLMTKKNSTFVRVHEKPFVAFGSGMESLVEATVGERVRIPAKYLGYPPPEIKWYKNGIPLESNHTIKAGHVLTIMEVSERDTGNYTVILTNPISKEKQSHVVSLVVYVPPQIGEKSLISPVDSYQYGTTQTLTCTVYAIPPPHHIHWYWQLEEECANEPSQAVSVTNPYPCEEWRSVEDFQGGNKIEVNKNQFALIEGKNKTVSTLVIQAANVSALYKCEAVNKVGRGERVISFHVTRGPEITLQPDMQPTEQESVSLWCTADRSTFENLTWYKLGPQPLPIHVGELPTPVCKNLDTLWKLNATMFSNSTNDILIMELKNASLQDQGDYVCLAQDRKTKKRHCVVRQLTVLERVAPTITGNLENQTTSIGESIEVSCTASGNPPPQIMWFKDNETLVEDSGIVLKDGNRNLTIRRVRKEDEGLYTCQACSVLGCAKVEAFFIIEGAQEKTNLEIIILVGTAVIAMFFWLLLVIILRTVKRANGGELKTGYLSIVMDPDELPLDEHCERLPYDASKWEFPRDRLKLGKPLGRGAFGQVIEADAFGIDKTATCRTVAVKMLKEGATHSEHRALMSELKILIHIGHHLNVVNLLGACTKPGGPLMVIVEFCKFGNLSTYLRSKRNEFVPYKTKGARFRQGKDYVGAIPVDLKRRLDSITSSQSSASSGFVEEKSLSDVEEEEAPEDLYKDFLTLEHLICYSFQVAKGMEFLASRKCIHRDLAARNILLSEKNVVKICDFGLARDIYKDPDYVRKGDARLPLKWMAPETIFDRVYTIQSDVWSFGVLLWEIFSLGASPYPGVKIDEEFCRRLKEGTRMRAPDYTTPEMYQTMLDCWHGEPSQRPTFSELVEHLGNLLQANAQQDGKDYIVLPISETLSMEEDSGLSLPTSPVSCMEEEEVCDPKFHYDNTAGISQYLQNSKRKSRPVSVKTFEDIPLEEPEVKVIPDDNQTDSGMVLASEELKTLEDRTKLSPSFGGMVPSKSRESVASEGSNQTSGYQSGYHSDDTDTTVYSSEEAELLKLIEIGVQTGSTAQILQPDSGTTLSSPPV
UniProt P08684, whole entry: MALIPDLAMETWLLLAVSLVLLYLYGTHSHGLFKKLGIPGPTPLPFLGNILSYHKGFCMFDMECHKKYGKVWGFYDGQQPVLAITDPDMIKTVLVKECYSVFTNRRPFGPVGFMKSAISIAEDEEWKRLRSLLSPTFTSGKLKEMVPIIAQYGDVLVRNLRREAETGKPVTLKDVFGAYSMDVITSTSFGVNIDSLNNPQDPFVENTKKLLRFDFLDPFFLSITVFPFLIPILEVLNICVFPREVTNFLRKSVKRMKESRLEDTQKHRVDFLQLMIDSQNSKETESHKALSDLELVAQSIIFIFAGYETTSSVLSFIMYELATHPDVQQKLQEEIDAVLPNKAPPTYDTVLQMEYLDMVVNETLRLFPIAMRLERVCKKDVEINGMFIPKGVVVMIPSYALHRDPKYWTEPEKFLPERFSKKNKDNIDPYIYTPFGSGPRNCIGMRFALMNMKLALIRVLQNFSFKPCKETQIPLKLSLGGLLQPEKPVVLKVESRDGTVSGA

How the values were obtained:
VEGFR II (KDR) = VEGFR II (KDR) (Homo sapiens, UniProt P35968); test: Inhibition of the KDR kinase activity (33P-ATP, poly-(Glu4Tyr) filter assay); conditions: read-out: VEGFR II (KDR) kinase-inhibition IC50
Description: • Stock Solutions • Stock solution A: 3 mmol of ATP in water, pH 7.0 (−70° C.) • Stock solution B: g-33P-ATP 1 mCi/100 μl • Stock solution C: poly-(Glu4Tyr) 10 mg/ml in water • Solution for Dilutions • Substrate solvent: 10 mmol of DTT, 10 mmol of manganese chloride, 100 mmol of magnesium chloride • Enzyme solution: 120 mmol of tris/HCl, pH 7.5, 10 μM of sodium vanadium oxide Sample Application 1 Inhibition of the KDR- and FLT-1 Kinase Activity in the Presence of the Compounds According to the Invention
In a microtiter plate (without protein binding) that tapers to a point, 10 μl of substrate mix (10 μl of volume of ATP stock solution A+25 μCi of g-33P-ATP (about 2.5 μl of stock solution B)+30 μl of poly-(Glu4Tyr) stock solution C+1.21 ml of substrate solvent), 10 μl of inhibitor solution (substances corresponding to the dilutions, 3% DMSO in substrate solvent as a control) and 10 μl of enzyme solution (11.25 μg of enzyme stock solution (KDR, FLT-1 or FLT-4 kinase) are added at 4° C. in 1.25 ml of enzyme solution (dilute). It is thoroughly mixed and incubated for 10 minutes at room temperature. Then, 10 μl of stop solution (250 mmol of EDTA, pH 7.0) is added, mixed, and 10 μl of the solution is transferred to a P 81 phosphocellulose filter. […] The filter paper is dried, coated with Meltilex, and measured in a microbeta counter. […]

[1] = molecular target: Cytochrome P450 isoenzyme 3A4 (Homo sapiens, UniProt P08684); test: Cytochrome P450 inhibition (Crespi et al.); conditions: read-out: Inhibition of Cyp 450 3A4 (IC50); baculovirus/insect cell-expressed human isoenzyme 3A4
Description: Cytochrome P450 Inhibition
The Cytochrome P450 inhibition was performed according to the publication of Crespi et al. (Anal. Biochem., 248, 188–190 (1997)) with use of the baculovirus/insect cell-expressed and human Cytochrome P450 isoenzyme (3A4).

| Structure (SMILES) | IC50 (VEGFR II (KDR)) [nM] | IC50 [1] [nM] |
| --- | --- | --- |
| O=C(Nc1cccc(C(F)(F)F)c1)c1ccccc1NCc1cc[nH]c(=O)c1 | 180 | 4600 |
| O=C(Nc1cccc(C(F)(F)F)c1)c1ccccc1NCc1ccc(=O)[nH]c1 | 25 | 1500 |
